The values that follow come from patent US10139410B2, “Protein-protein interaction as biomarkers” (H. LEE MOFFITT CANCER CENTER AND RESEARCH INSTITUTE, INC., priority 2011, dated 2018).

The experiment has as its system EGFR protein-protein interactions. Particulars: human, in vivo.

In the case of `COc1cc2ncnc(Nc3ccc(F)c(Cl)c3)c2cc1OCCCN1CCOCC1` [gefitinib], the “interactions with EGFR (PLA)” value is “reduce interactions with EGFR”.
